Reference: patent publication US20250326765A1, “PDE4B INHIBITOR AND USE THEREOF” (XIZANG HAISCO PHARMACEUTICAL CO., LTD., priority 2022, published 2025)

Chains of the proteins cited; added tags and fusions are not shown. Residues count along the entry.
UniProt Q08499, 303-809 limits assumed: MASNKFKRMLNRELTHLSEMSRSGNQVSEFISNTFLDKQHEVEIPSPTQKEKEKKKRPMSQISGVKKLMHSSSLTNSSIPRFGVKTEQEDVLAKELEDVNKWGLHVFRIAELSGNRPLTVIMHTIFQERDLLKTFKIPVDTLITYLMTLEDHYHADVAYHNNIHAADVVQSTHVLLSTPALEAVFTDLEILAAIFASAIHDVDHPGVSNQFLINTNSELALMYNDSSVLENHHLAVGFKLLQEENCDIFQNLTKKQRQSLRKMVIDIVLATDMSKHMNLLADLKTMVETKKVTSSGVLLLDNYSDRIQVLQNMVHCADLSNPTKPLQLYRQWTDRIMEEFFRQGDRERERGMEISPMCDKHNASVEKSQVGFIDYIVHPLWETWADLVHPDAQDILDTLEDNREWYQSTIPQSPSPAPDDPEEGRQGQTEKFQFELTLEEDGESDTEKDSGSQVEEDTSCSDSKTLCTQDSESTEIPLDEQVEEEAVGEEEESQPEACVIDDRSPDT
UniProt Q07343, whole entry: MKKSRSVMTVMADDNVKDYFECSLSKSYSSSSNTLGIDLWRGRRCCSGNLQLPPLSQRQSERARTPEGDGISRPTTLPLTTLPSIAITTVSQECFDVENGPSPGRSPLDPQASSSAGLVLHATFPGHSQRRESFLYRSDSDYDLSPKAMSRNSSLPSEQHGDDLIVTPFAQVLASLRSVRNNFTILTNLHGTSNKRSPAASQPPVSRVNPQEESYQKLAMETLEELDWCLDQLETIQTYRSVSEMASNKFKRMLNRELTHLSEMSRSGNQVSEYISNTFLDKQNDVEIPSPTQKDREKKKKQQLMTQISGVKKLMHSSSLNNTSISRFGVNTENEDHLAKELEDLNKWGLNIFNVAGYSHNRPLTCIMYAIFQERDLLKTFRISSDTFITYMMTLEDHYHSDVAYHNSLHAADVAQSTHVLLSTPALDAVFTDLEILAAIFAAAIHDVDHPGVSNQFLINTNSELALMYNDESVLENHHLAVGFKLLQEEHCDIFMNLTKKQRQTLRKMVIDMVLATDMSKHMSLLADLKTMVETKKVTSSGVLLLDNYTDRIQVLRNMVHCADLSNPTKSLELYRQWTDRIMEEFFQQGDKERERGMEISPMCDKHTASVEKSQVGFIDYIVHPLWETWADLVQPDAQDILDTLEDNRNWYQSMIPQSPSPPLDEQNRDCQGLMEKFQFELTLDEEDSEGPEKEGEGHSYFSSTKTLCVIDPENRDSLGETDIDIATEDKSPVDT
UniProt Q07343, 1-564 isoform 2: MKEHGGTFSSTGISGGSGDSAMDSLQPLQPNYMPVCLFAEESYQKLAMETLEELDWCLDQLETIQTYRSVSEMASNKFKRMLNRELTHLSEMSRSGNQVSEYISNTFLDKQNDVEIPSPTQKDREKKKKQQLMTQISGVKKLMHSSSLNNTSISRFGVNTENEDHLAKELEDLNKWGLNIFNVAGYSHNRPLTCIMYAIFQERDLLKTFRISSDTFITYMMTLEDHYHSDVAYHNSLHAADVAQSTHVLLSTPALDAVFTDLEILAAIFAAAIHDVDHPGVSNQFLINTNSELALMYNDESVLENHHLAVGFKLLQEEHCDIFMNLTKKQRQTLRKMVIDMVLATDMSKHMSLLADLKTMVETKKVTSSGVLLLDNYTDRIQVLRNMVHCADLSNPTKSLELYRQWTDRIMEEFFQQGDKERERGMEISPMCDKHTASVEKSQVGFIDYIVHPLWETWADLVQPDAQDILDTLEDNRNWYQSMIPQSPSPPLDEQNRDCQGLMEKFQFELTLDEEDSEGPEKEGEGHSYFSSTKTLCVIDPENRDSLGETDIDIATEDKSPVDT

How the values were obtained:
PDE4D2 = PDE4D2 (Homo sapiens, UniProt Q08499); assay: Effect of compounds on PDE4D2 activity (fluorescence polarization kit); conditions: read-out: PDE4D2 IC50; class symbols
Protocol: The effect of compounds on PDE4D2 activity was detected by a fluorescence polarization kit (BPS Bioscience, Catalog #60345). During the reaction, 12.5 μL of 0.272 ng/well of an enzyme (final concentration: 0.068 ng/well) and 12.5 μL of the compound diluted in a gradient manner (DMSO concentration: 4%) were first pre-incubated at room temperature for 15 minutes, the same volume of the enzyme at the same concentration and 12.5 μL of PDE buffer containing 4% DMSO were added to the positive control well, and 25 μL of PDE buffer containing 2% DMSO was added to the negative control well. After completion, 25 μL of […] FAM-Cyclic-3′,5′-AMP (final concentration: […]) was added to each well, fully mixed, and then incubated at room temperature with slow shaking for 30 minutes. […]
After the incubation was complete, BMG LRBTECH microplate reader was used for FP detection, with Excitation at 485 nm and Emission at 520 nm. […]
[formula] • I∥ (S520): fluorescence intensity in parallel direction • I⊥ (P520): fluorescence intensity in perpendicular direction • G: G factor=1 […]
(§1) According to the calculated inhibition rate at each concentration, the IC50 value of each compound was calculated by GraphPad Prism 8 software.

PDE4B1 = PDE4B1 (Homo sapiens, UniProt Q07343); assay: Effect of compounds on PDE4B1 activity (IMAP fluorescence polarization kit); conditions: read-out: PDE4B1 IC50; class symbols
PDE4B2 = PDE4B2 (Homo sapiens, UniProt Q07343); assay: Effect of compounds on PDE4B2 activity (fluorescence polarization kit); conditions: read-out: PDE4B2 IC50; class symbols
Protocol: The effect of compounds on PDE4B2 activity was detected by a fluorescence polarization kit (BPS Bioscience, Catalog #60343). According to the instructions of the kit, FAM-Cyclic-3′,5′-AMP at a final concentration of […], 1 ng/well of PDE4B2 (PDE buffer was added to the negative control well), and a compound diluted in a gradient manner (PDE buffer containing 10% DMSO was added to the positive control well) were added to each well, fully mixed, and then reacted at room temperature for 1 h. The Binding Agent was diluted with the Binding Agent Diluent (cAMP) at a ratio of 1:100 for later use, the Binding Agent dilution was taken and added to the test plate at 50 μl/well and incubated at room temperature with slow shaking for 20 minutes. After the incubation was complete, Envision was used for FP detection, with Excitation at 480 nm and Emission at 535 nm. FP was usually represented by mP value.
[formula] • I∥ (S535): fluorescence intensity in parallel direction • I⊥ (P535): fluorescence intensity in perpendicular direction • G: G factor=1
[formula] • mP(sample): mP of the test compound in a reaction well • mP(negative control): mP in the negative control well • mP(positive control): mP in the positive control well
as §1

SMILES	IC50 (PDE4D2)	IC50 (PDE4B1)	IC50 (PDE4B2)
[O-][S@+]1CCc2nc(N3CC4C=C(c5ccc(Cl)cc5)CC4C3)nc(NC3(CO)CCC3)c21 (single isomer, unassigned)	< 10 nM	< 10 nM	
[O-][S@+]1CCc2nc(N3C[C@H]4CC(c5ccc(Cl)cc5)C[C@H]4C3)nc(NC3(CO)CCC3)c21 (single isomer, unassigned)	< 10 nM		10 to 50 nM
